Test [1] relates to acetylcholinesterase (AchE). The test is described as follows: acetylcholinesterase (AChE) inhibition in the brain and serum after i.p. administration. Type of test: in vivo, rats. As to conditions: n=4; for AChE inhibition, brain (M ± SE): Table I, 10 min, salicylate. On the procedure: The acetylcholinesterase (AchE) inhibition in the brain and serum was tested for the heptyl derivative in comparison with physostigmine. Both physostigmine and heptyl derivative were used in form of salycilate and dissolved in distilled water with carbossimethyl cellulose sodium salt at 2%.
Acetylcholinesterase (AChE) inhibition in the brain
and serum 10 min. after i.p. administration of different
doses of physostigmine and heptyl to rats
Acetylcholinesterase (AChE) inhibition in the brain and in serum after
i.p. administration of equiactive doses of
physostigmine and heptyl, at various time intervals (10-60-120 min.)

Amino acid sequences for entries named in this document (tags omitted). Residues count along the entry.
UniProt O42275, 24-633: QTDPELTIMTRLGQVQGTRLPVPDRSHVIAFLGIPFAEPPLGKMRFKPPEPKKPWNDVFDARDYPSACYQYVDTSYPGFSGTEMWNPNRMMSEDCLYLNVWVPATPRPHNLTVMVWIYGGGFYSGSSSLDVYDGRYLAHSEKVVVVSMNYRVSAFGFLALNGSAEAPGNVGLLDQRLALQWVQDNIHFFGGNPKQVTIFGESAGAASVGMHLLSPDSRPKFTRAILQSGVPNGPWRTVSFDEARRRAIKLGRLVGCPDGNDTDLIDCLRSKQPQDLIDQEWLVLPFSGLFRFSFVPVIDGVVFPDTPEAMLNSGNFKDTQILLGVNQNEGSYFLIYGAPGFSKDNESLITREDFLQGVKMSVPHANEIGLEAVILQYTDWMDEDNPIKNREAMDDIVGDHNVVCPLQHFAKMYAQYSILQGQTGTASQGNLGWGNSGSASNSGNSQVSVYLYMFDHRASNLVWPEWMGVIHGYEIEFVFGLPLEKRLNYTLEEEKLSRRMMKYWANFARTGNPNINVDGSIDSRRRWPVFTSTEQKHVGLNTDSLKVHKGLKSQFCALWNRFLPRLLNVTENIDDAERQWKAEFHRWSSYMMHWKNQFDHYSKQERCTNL

Test [2] addresses T1, acetylcholinesterase originating from "Electrophorus electricus" (Electrophorus electricus, UniProt O42275). As to conditions: read-out: I50 × 10^6.
For test [3], the target named is T1, acetylcholinesterase originating from "Electrophorus electricus". The test is described as follows: biochemical.

By Ki is commonly meant a dissociation constant, usually derived from enzyme kinetics or from competition with a known ligand. High values mean lower affinity, low ones higher affinity. On to `CNC(=O)Oc1ccc2c(c1)[C@]1(C)CCN(C)[C@@H]1N2C` [Eserine], for which the “AChE inhibition, brain (M ± SE)” value amounted to 19.58 ± 11.43% in test [1] (0.10 mg/kg i.p.) and 53.70 ± 8.30% in test [1] (0.20 mg/kg i.p.). Moreover, the “% AChE Inhibition, brain, 10 minutes (M ± SE)” value in test [1] (Table II, i.p. equiactive doses: Phys. 0.2, Hept. 1.0 mg/Kg) was found to be 53.70 ± 8.30%. Also, the IC50 in test [2] turned out to be 200 nM. The Ki in test [3] is 20 nM.

Values taken from patent US4831155A (priority 1984, dated 1989).
